Drawing on ChEMBL document CHEMBL4837269, “Identification of 6-Hydroxypyrimidin-4(1H)-one-3-carboxamides as Potent and Orally Active APJ Receptor Agonists” (ACS Med Chem Lett, 2021), this text covers EC50 for 3 compounds.

The assay addresses T1, Apelin receptor (Homo sapiens, UniProt P35414).
T1 sequence (P35414 whole entry): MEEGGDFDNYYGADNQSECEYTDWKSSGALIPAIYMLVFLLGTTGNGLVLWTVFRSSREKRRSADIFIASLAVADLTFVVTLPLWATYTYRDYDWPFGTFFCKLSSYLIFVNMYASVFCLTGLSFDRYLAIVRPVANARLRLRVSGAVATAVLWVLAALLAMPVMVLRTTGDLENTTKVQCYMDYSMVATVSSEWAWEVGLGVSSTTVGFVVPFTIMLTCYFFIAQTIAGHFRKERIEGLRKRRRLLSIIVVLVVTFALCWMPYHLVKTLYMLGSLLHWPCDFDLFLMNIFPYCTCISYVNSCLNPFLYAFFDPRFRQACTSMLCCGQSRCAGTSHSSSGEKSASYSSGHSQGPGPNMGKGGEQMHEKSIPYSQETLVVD
In words: Agonist activity at human APJ receptor expressed in HEK293T cells assessed as compound stimulated inhibition of forskolin stimulated cAMP production incubated for 30 mins by HTRF assay. The format is functional, cell-based. (In general: cAMP levels reflect the balance of adenylyl cyclase and phosphodiesterase activity.)
With `CCCCc1nc(=O)c(C(=O)N2CC[C@H](c3ccccc3)C2)c(O)n1-c1c(OC)cccc1OC`, the EC50 – broadly, the concentration that produces a half-maximal response – is 0.22 nM.
The figure for `CCCCc1nc(=O)c(C(=O)N2CC[C@@H](c3ccccc3)C2)c(O)n1-c1c(OC)cccc1OC` is 0.26 nM; for `COc1cccc(OC)c1-n1c(NS(=O)(=O)[C@@H](C)[C@H](C)c2ncc(C)cn2)nnc1-c1cncc(C)c1` [AZELAPRAG] it is 0.23 nM.
